By UniProt entry, the sequences of proteins in these tests, tags left out.
UniProt P35372, whole entry: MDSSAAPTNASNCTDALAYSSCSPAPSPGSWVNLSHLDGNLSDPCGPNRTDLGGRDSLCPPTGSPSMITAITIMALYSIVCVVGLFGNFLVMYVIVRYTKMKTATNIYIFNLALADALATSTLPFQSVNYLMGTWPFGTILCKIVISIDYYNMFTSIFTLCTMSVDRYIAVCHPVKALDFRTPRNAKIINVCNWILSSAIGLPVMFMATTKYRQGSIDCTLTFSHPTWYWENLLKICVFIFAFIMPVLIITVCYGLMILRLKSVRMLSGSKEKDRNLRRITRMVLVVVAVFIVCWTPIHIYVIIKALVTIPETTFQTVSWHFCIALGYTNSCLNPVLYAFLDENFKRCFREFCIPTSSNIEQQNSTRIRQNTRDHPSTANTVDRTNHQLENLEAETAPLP
UniProt P41145, whole entry: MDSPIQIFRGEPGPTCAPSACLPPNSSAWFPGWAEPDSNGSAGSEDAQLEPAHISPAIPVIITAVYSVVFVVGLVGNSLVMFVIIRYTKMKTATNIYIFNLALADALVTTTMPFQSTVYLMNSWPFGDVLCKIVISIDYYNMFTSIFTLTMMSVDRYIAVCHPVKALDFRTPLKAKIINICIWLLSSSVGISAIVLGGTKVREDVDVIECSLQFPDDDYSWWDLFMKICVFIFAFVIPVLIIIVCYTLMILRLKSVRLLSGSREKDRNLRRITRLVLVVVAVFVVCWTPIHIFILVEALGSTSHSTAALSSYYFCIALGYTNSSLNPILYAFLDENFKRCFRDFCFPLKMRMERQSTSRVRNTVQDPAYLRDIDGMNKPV
UniProt P41146, whole entry: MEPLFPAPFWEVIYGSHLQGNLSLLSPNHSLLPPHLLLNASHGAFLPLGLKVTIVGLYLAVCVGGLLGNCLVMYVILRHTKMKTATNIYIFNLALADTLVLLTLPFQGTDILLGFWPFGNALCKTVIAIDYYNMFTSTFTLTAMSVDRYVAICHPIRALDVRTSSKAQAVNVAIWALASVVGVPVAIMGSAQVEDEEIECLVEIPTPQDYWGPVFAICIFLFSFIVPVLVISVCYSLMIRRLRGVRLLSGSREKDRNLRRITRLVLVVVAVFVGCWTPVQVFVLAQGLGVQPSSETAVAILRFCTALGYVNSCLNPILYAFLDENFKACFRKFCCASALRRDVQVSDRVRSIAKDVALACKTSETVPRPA

According to patent publication US9315514B2, “1,3-dioxanomorphides and 1,3-dioxanocodides” (dated 2016):

How the values were obtained:
[1] = target: μ-opioid receptor (Homo sapiens (Human), UniProt P35372); experiment: μ-opioid receptor [35S]GTPγS functional assay; settings: for μ-opioid receptor Emax: maximal effect relative to DAMGO; for EC50: read-out: μ-opioid receptor EC50, μ GTP EC50
[2] = target: κ-opioid receptor (Homo sapiens (Human), UniProt P41145); experiment: κ-opioid receptor [35S]GTPγS functional assay; settings: for κ-opioid receptor Emax: maximal effect relative to U69,593; for EC50: read-out: κ-opioid receptor EC50, κ GTP EC50
[3] = target: δ-opioid receptor (Homo sapiens (Human), UniProt P41143); experiment: δ-opioid receptor activity in PerkinElmer ligand binding and cellular assays
[4] = target: ORL-1 receptor (Homo sapiens (Human), UniProt P41146); experiment: ORL-1 receptor activity in PerkinElmer ligand binding and cellular assays

Compound	μ-opioid receptor Emax [1]	EC50 [1]	κ-opioid receptor Emax [2]	EC50 [2]	δ-opioid receptor activity [3]	ORL-1 receptor activity [4]
CC(C)(C)[C@@]1(C)OC(c2ccccc2)O[C@]23CC[C@@]4(C[C@@H]21)[C@H]1Cc2ccc(O)c5c2[C@@]4(CCN1CC1CC1)[C@H]3O5 (some centres unmarked)	33.33%	5.35 nM	0.33%	> 20 nM		
CCC1O[C@]23CC[C@@]4(C[C@@H]2[C@@](C)(C(C)(C)C)O1)[C@H]1Cc2ccc(O)c5c2[C@@]4(CCN1CC1CC1)[C@H]3O5 (some centres unmarked)	59.67%	1.4 nM	16.00%	4.42 nM		
CCCC1O[C@]23CC[C@@]4(C[C@@H]2[C@@](C)(C(C)(C)C)O1)[C@H]1Cc2ccc(O)c5c2[C@@]4(CCN1CC1CC1)[C@H]3O5 (some centres unmarked)	50.67%	3.54 nM	13.67%	9.48 nM		
COc1ccc2c3c1O[C@H]1[C@@]45CCC6(C[C@@H]4[C@@](C)(C(C)(C)C)OCO5)[C@@H](C2)N(C)CC[C@]316					shown δ-opioid receptor activity	shown ORL-1 receptor activity
CC(C)(C)[C@@]1(C)OCO[C@]23CC[C@@]4(C[C@@H]21)[C@H]1Cc2ccc(O)c5c2[C@@]4(CCN1CC1CC1)[C@H]3O5	46.67%	0.86 nM	16.67%	22.7 nM	shown δ-opioid receptor activity	
CN1CC[C@]23c4c5ccc(O)c4O[C@H]2[C@@]24CC[C@@]3(C[C@@H]2[C@@](C)(Cc2ccccc2)OCO4)[C@H]1C5					shown δ-opioid receptor activity	shown ORL-1 receptor activity
CC(C)(C)[C@@]1(C)OCO[C@]23C=C[C@@]4(C[C@@H]21)[C@H]1Cc2ccc(O)c5c2[C@@]4(CCN1CC1CC1)[C@H]3O5	46%	1.56 nM	25%	7.76 nM	shown δ-opioid receptor activity	
